Literature values as cited in patent EP1366765A1, “Use of matrix metalloproteinase inhibitors for treating neurological disorders and promoting wound healing” (priority 1996, dated 1998).

System: MMP-2
Conditions: cited from earlier work

Structure (SMILES): O=C(C[C@@H](CCCc1ccccc1)C(=O)N[C@@H](CC1CCCCC1)C(=O)NCCc1ccccc1)NO [Compound 17]
- IC50: 0.062 nM
